Measured values: US20100112601A1, “NOVEL MONOCLONAL ANTIBODY AND USE OF THE SAME” (Kyoto University, priority 2006, published 2010)

What was measured:
[1] = target: T1, PAC1 (Homo sapiens, UniProt P41586); conditions: Eur. J. Biochem. 207, 239 (1992); read-out: reported value of IC50 in the literature; cited from earlier work
T1 sequence (P41586 21-468): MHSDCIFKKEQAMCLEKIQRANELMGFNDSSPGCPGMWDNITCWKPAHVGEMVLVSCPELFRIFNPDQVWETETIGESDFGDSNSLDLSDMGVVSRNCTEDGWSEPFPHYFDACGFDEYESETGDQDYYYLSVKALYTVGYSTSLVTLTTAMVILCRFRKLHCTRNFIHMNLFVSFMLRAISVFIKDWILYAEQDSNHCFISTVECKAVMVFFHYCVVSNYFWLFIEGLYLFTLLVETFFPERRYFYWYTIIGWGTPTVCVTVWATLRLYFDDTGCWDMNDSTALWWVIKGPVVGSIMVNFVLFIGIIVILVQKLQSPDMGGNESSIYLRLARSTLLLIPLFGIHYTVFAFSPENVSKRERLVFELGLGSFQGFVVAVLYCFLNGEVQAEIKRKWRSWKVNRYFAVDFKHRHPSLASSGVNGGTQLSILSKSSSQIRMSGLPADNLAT

[2] = target: T1, PAC1; assay: Inhibition of PACAP27-stimulated GTPγ-35S binding in membranes of CHO cells expressing PAC1 receptor; format: biochemical; set-up: expressed in transfected cells; host or cells: Chinese hamster ovary (CHO) cells; conditions: CHO membranes expressing PAC1, PACAP27 stimulation; order of magnitude; read-out: IC50 of inhibition of GTP-γS binding
Description: Chinese hamster ovary (CHO) cells having the PAC1 receptor gene introduced and expressed therein were disrupted by a Polytronhomogenizer, and 150 fold diluted with a buffer solution containing 20 mM Tris-HCl, 1 mM EDTA, 5 mM MgCl2, 150 mM NaCl, 1 μM GDP, and 1% BSA to make 100 μL. 10 μL of the mouse anti-PAC1 monoclonal antibody obtained in Example 2 was added at various concentrations, and this was followed by incubation for 15 minutes at 25° C. Subsequently, 10 μl of 5 nM PACAP27 was added, and 10 μl of 10 nM GTPγ-^35S was further added, and this was followed by incubation for 60 minutes at 25° C. Subsequently, aspiration filtration was performed using a water-moistened GF/F glass filter (Whatman), and the filter was twice washed with 1.5 mL of a washing buffer solution containing 50 mM Tris-HCl (pH 7.4), 1 mM EDTA, 5 mM MgCl2, 0.05% CHAPS, and 0.1% BSA. The radioactivity of GTPγ-^35S captured on the filter was detected using a liquid scintillator. The measurement was performed twice. Taking a sample supplemented with D-PBS in place of the antibody as 100% bound, and one supplemented with the antagonist PACAP6-38 to obtain a final concentration of 1.5×10^−6 M as 0% bound, an evaluation was performed in terms of % of control.

## PACAP(6-38)NH2
[1]
  IC50: 0.002 µM
[2]
  IC50: ~0.1 µM

Read-outs that look alike come from different tables or passages of the source.
